Assay results as given in PMC3794980, “Identification of Conserved and HLA Promiscuous DENV3 T-Cell Epitopes” (PLoS Neglected Tropical Diseases, 2013).
Like-named read-outs stand apart in the source and are kept apart here.

What was measured:
Assay in all cases: biochemical
Format in all cases: binding
DRB1*0401 = DRB1*0401 (Homo sapiens, UniProt P01903+P01911, A100K/A169T/F76Y/I96L/K127E/L162R/M171V/N62H/P40V/Q125Y/R42H/S133A/S149N/S66Y/V115G/V209L/W38E)
DRB1*0405 = DRB1*0405 (Homo sapiens, UniProt P01903+P01911, A100R/A169T/D86S/F76Y/I96L/K127E/L162R/M171V/N62H/P40V/Q125Y/R42H/S133A/S149N/S66Y/V115G/V209L/W38E)
DRB1*0701 = DRB1*0701 (Homo sapiens, UniProt P01903+P01911, A100R/A102G/A103Q/D57E/D86V/E43K/F76Y/K127E/L162R/M171V/P40G/Q125H/Q99D/R33Q/R42Y/R54Q/S133A/S66F/T210M/V115G/Y107V/Y59L/Y89S)
DRB1*0802 = DRB1*0802 (Homo sapiens, UniProt P01903+P01911, A100R/A103L/A169T/F76Y/H45Y/I96F/K41T/L162R/M171V/P40S/Q125H/Q178H/Q39Y/Q99D/R218S/R42G/S66Y/V115G/W38E)
DRB1*0901 = DRB1*0901 (Homo sapiens, UniProt P01903+P01911, A100R/A103E/D57H/D86V/F55Y/F60I/F76Y/I96F/K127E/L162R/M171V/P40D/Q125H/Q99R/R33Q/R42F/S133A/S66N/T210M/V115G/W38K/Y107V/Y59G/Y89S)
DRB1*1501 = DRB1*1501 (Homo sapiens, UniProt P01903+P01911)
DRB1*0301 = DRB1*0301 (Homo sapiens, UniProt P01903+P01911, A100K/A102G/A103R/A169T/F55Y/I96L/K41T/L162R/M171V/P40S/Q125H/Q178H/Q39Y/R42S/S66N/T106N/T262R/W38E/Y61H)
DRB1*0404 = DRB1*0404 (Homo sapiens, UniProt P01903+P01911, A100R/A169T/F76Y/I96L/K127E/L162R/M171V/N62H/P40V/Q125Y/R42H/S133A/S149N/S66Y/V209L/W38E)
DRB1*1101 = DRB1*1101 (Homo sapiens, UniProt P01903+P01911, A100R/A169T/A87E/I96F/K41T/L162R/M171V/P40S/Q125H/Q178H/Q39Y/Q99D/R42S/S66Y/T262R/V115G/W38E)
DRB1*1302 = DRB1*1302 (Homo sapiens, UniProt P01903+P01911, A100E/A169T/K41T/L162R/M171V/P40S/Q125H/Q178H/Q39Y/Q99D/R42S/S66N/T262R/V115G/W38E/Y61H)
[1] = read-out: Binding Affinity (nM) DRB1*0404
[2] = read-out: Binding Affinity (nM) DRB1*0405
[3] = read-out: Binding Affinity (nM) DRB1*0802
[4] = competitive inhibition of radiolabeled standard peptide, DRB1*0901, read-out: Binding Affinity (nM) DRB1*0901

| Structure (SMILES) | IC50 (DRB1*0401) [µM] | IC50 (DRB1*0405) [nM] | IC50 (DRB1*0701) [nM] | IC50 (DRB1*0802) [nM] | IC50 (DRB1*0901) [nM] | IC50 (DRB1*1501) [µM] | IC50 (DRB1*0301) [µM] | IC50 (DRB1*0404; [1]) [nM] | IC50 (DRB1*0405; [2]) [nM] | IC50 (DRB1*1101) [nM] | IC50 (DRB1*0404) [nM] | IC50 (DRB1*0701; read-out: Binding Affinity (nM) DRB1*0701) [nM] | IC50 (DRB1*1302) [nM] | IC50 (DRB1*0802; [3]) [nM] | IC50 (DRB1*0901; [4]) [nM] | IC50 (DRB1*1302; competitive inhibition of radiolabeled standard peptide, DRB1*1302, read-out: Binding Affinity (nM) DRB1*1302) [nM] | IC50 (DRB1*1101; read-out: Binding Affinity (nM) DRB1*1101) [nM] |
| --- | --- | --- | --- | --- | --- | --- | --- | --- | --- | --- | --- | --- | --- | --- | --- | --- | --- |
| CC(C)C[C@H](NC(=O)[C@H](CCCNC(=N)N)NC(=O)[C@H](CCCCN)NC(=O)[C@@H]1CCCN1C(=O)[C@H](CO)NC(=O)[C@H](CC(=O)O)NC(=O)[C@H](C)NC(=O)[C@H](CCC(N)=O)NC(=O)[C@H](Cc1ccccc1)NC(=O)[C@H](CCCCN)NC(=O)[C@H](Cc1ccc(O)cc1)NC(=O)[C@H](CCC(N)=O)NC(=O)[C@H](CCC(=O)O)NC(=O)[C@@H](N)[C@@H](C)O)C(=O)N[C@@H](C)C(=O)O [NS1 29-43] | 0.048 | 1510 | 1710 | 13600 | 1010 | 8.36 | – | – | – | – | – | – | – | – | – | – | – |
| CC[C@H](C)[C@H](N)C(=O)N[C@H](C(=O)NCC(=O)N[C@H](C(=O)N[C@@H](CC(C)C)C(=O)N[C@@H](CCC(=O)O)C(=O)N[C@@H](CCC(N)=O)C(=O)NCC(=O)N[C@@H](CCCCN)C(=O)N[C@@H](CCCNC(=N)N)C(=O)N[C@H](C(=O)N[C@@H](CC(C)C)C(=O)N[C@H](C(=O)N1CCC[C@H]1C(=O)N[C@@H](CCC(N)=O)C(=O)O)[C@@H](C)O)[C@@H](C)O)C(C)C)[C@@H](C)CC [NS1 93-107] | 15.4 | – | 483 | – | – | 1 | 3.93 | > 20000 | > 20000 | 16600 | – | – | – | – | – | – | – |
| CC(C)C[C@H](NC(=O)[C@H](CCCNC(=N)N)NC(=O)[C@H](CCCCN)NC(=O)CNC(=O)[C@H](CC(N)=O)NC(=O)[C@H](Cc1ccc(O)cc1)NC(=O)[C@@H](NC(=O)[C@H](CC(C)C)NC(=O)[C@@H](NC(=O)[C@H](C)NC(=O)CNC(=O)[C@H](CCCNC(=N)N)NC(=O)[C@@H](N)[C@@H](C)O)C(C)C)[C@@H](C)O)C(=O)N[C@@H](CCC(=O)O)C(=O)N1CCC[C@H]1C(=O)O [NS3 53-67] | 5.91 | – | – | 14700 | – | – | – | – | – | – | 7190 | – | – | – | – | – | – |
| CC(C)C[C@H](NC(=O)[C@H](CCCNC(=N)N)NC(=O)[C@H](CCCCN)NC(=O)CNC(=O)[C@@H](N)CC(N)=O)C(=O)N[C@@H](CCC(=O)O)C(=O)N1CCC[C@H]1C(=O)N[C@@H](CC(N)=O)C(=O)N[C@@H](Cc1c[nH]c2ccccc12)C(=O)N[C@@H](C)C(=O)N[C@@H](CO)C(=O)N[C@H](C(=O)N[C@@H](CCCCN)C(=O)N[C@@H](CCCCN)C(=O)N[C@@H](CC(=O)O)C(=O)O)C(C)C [NS3 61-75] | 4.59 | – | 2350 | 2070 | – | 1.5 | 1.69 | > 20000 | > 20000 | 4750 | – | – | – | – | – | – | – |
| CC[C@H](C)[C@H](NC(=O)[C@@H](NC(=O)[C@H](CC(C)C)NC(=O)[C@H](CC(N)=O)NC(=O)[C@H](CCCNC(=N)N)NC(=O)[C@H](CCCCN)NC(=O)[C@@H](N)CCCCN)[C@@H](C)O)C(=O)N[C@@H](CCSC)C(=O)N[C@@H](CC(=O)O)C(=O)N[C@@H](CC(C)C)C(=O)N[C@@H](Cc1c[nH]cn1)C(=O)N1CCC[C@H]1C(=O)NCC(=O)N[C@@H](CO)C(=O)NCC(=O)O [NS3 185-199] | 0.171 | 972 | – | 21 | 6190 | 1.84 | 0.87 | – | – | 72 | 2360 | > 20000 | 3640 | – | – | – | – |
| CC[C@H](C)[C@H](NC(=O)[C@H](Cc1ccc(O)cc1)NC(=O)CNC(=O)[C@H](CCCNC(=N)N)NC(=O)[C@H](C)N)C(=O)N[C@@H](CO)C(=O)N[C@H](C(=O)N[C@@H](CCCNC(=N)N)C(=O)N[C@H](C(=O)NCC(=O)N[C@@H](CCSC)C(=O)NCC(=O)N[C@@H](CCC(=O)O)C(=O)N[C@@H](C)C(=O)N[C@@H](C)C(=O)O)C(C)C)[C@@H](C)O [NS3 297-311] | 0.016 | 90 | 77 | – | – | – | 7.29 | – | – | 35 | – | – | – | > 20000 | 1910 | 2300 | – |
| CC[C@H](C)[C@H](N)C(=O)N[C@@H](Cc1ccccc1)C(=O)N[C@@H](CCSC)C(=O)N[C@H](C(=O)N[C@@H](C)C(=O)N[C@H](C(=O)N1CCC[C@H]1C(=O)N1CCC[C@H]1C(=O)NCC(=O)N[C@H](C(=O)N[C@@H](C)C(=O)N[C@@H](CC(=O)O)C(=O)N[C@@H](C)C(=O)N[C@@H](Cc1ccccc1)C(=O)N1CCC[C@H]1C(=O)O)[C@@H](C)O)[C@@H](C)O)[C@@H](C)O [NS3 313-327] | 0.055 | 2250 | – | 40 | 2010 | – | 14.7 | – | – | 1050 | – | – | 13500 | – | – | – | – |
| CC[C@H](C)[C@H](NC(=O)[C@@H](NC(=O)[C@H](CCCCN)NC(=O)[C@H](CCCCN)NC(=O)CNC(=O)[C@H](CC(N)=O)NC(=O)[C@H](CCCCN)NC(=O)[C@H](CCCNC(=N)N)NC(=O)[C@H](CC(C)C)NC(=O)[C@H](CS)NC(=O)[C@H](CC(N)=O)NC(=O)[C@H](C)N)C(C)C)C(=O)N[C@@H](CCC(N)=O)C(=O)N[C@@H](CC(C)C)C(=O)N[C@@H](CO)C(=O)O [NS3 373-387] | 2.75 | 5300 | – | 16100 | – | – | 11.4 | – | – | – | 11300 | – | – | – | 3570 | – | – |
| CC[C@H](C)[C@H](NC(=O)[C@@H](NC(=O)[C@H](CCCNC(=N)N)NC(=O)[C@H](CCC(=O)O)NC(=O)[C@@H]1CCCN1C(=O)CNC(=O)[C@H](CC(=O)O)NC(=O)[C@@H](NC(=O)[C@H](CC(C)C)NC(=O)[C@@H](NC(=O)[C@@H](NC(=O)[C@@H]1CCCN1C(=O)[C@H](CCCCN)NC(=O)[C@H](CC(C)C)NC(=O)[C@@H](N)CS)C(C)C)[C@@H](C)CC)[C@@H](C)O)C(C)C)C(=O)O [NS3 429-443] | 7.32 | 1770 | 3410 | – | 7160 | 5.91 | – | – | – | 4930 | – | – | – | – | – | – | – |
| CC[C@H](C)[C@H](NC(=O)[C@@H](N)C(C)C)C(=O)N[C@@H](CC(C)C)C(=O)N[C@H](C(=O)N[C@@H](CC(=O)O)C(=O)NCC(=O)N1CCC[C@H]1C(=O)N[C@@H](CCC(=O)O)C(=O)N[C@@H](CCCNC(=N)N)C(=O)N[C@H](C(=O)N[C@H](C(=O)N[C@@H](CC(C)C)C(=O)N[C@@H](C)C(=O)NCC(=O)N1CCC[C@H]1C(=O)O)[C@@H](C)CC)C(C)C)[C@@H](C)O [NS3 433-447] | 4.18 | 3980 | 18800 | 8720 | 3760 | 1.73 | 0.069 | – | – | – | 5110 | – | 24 | – | – | – | > 20000 |
| CSCC[C@H](NC(=O)CNC(=O)CNC(=O)[C@H](Cc1c[nH]cn1)NC(=O)[C@H](CCCCN)NC(=O)[C@H](CCCNC(=N)N)NC(=O)[C@H](CCC(N)=O)NC(=O)[C@H](CC(C)C)NC(=O)[C@H](CCCNC(=N)N)NC(=O)[C@H](CCC(=O)O)NC(=O)[C@@H](N)CC(C)C)C(=O)N[C@@H](CC(C)C)C(=O)N[C@H](C(=O)N[C@@H](CCCNC(=N)N)C(=O)N[C@@H](CC(N)=O)C(=O)N1CCC[C@H]1C(=O)N[C@@H](CC(C)C)C(=O)O)C(C)C [NS5 193-209] | 6.38 | – | 144 | – | 1130 | 0.199 | 7.46 | > 20000 | > 20000 | 110 | – | – | 15 | > 20000 | – | – | – |
